# Apparent affinities of Ab-91 variants for a coronavirus HR2 peptide

Binding partner: SARS-CoV-2 spike HR2 peptide, sequence PDVDLGDISGINAS.

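Phage display of a naive human antibody library on the peptide gave the parent. In library AAYL51, one, two or three CDR residues were substituted; doubles and triples were drawn at random. Affinity was read by AlphaSeq, a pooled yeast mating assay with surface-displayed partners. The frequency of each diploid, read from paired DNA barcodes, reflects how well the two displayed proteins bind. The ratio of observed to expected reads was calibrated, replicate by replicate, on BCL2-family standards whose Kd was known from biolayer interferometry. The assay was run in three technical replicates.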

Ab-91 is the parent antibody, in scFv form: VL, then a (GGGGS)3 linker, then VH. The light chain is unchanged in all variants.
VL: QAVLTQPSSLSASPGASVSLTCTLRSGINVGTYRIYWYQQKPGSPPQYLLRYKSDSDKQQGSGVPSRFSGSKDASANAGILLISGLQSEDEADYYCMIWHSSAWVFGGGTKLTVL
VH: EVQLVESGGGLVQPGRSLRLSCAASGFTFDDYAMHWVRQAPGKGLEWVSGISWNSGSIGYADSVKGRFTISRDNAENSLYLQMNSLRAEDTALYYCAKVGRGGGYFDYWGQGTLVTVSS

Substitutions are numbered in sequence along the VH above, starting at 1 (not Kabat). Values are log10 of the apparent Kd in nM; lower means stronger binding. An entry "ND" has no value in the source: the pair was not observed among the diploids in that replicate. This suggests poor binding but is not conclusive. As a blank, each scFv also met three strains without target: over library AAYL51, 21% of these pairings were detected, typically at 4.54 and seldom below 3.26. Also given: how often the same scFv was detected with the empty control strains, with their mean in brackets.

changes,"log10 Kd, replicates",control signals
F29E G56W K65S,ND / ND / ND,0/9
G26D Y32P W53G,3.14 / ND / 3.93,2/9 (5.23)
I51D S63G G100P,4.84 / 4.63 / 5.40,5/9 (4.95)
F29I I58T G59W,6.15 / 6.30 / ND,3/9 (5.24)
W53Q G100P Y105Q,ND / ND / ND,0/9
S52V R101L F106N,ND / ND / 4.85,1/9 (4.14)
D31T S57I Y60H,ND / ND / ND,0/9
D30L D31N D62Y,ND / ND / ND,1/9 (4.90)
F29M D30M W53T,ND / ND / ND,0/9
I58F G59F S63G,3.41 / 6.18 / ND,2/9 (4.59)
D31W A61Q G104V,ND / ND / ND,0/9
A33P S57Q,ND / ND / ND,2/9 (3.56)
I58R R101T D107L,0.92 / 1.16 / 0.37,6/9 (4.92)
Y32T V64D G103W,5.18 / ND / ND,4/9 (4.90)
D62F V64Y F106S,ND / 4.46 / ND,2/9 (4.59)
S52C A61Y Y108V,ND / ND / ND,0/9
G26Q Y32E Y105S,ND / ND / ND,1/9 (3.76)
T28I,6.04 / 5.07 / 4.80,4/9 (5.11)
G26I S57I,5.21 / ND / 4.74,7/9 (5.06)
F27W I51D S57E,ND / ND / ND,1/9 (4.30)
S52D S55V Y105V,3.38 / 3.43 / 4.96,3/9 (4.28)
F29E D31A G100Y,5.41 / 5.12 / ND,5/9 (4.59)
G104K F106V,6.06 / 6.45 / ND,5/9 (5.26)
Y32E G50M F106V,4.62 / 4.93 / ND,6/9 (5.54)
D31A H35E S52Q,ND / ND / ND,0/9
A33K H35K S52I,ND / ND / ND,1/9 (3.51)
S52Q S63N F106V,3.46 / 3.89 / ND,1/9 (4.03)
D30A I51K K65V,3.56 / ND / ND,1/9 (3.74)
A33V W53M D62M,ND / ND / ND,0/9
Y60R A61L G100L,ND / ND / ND,1/9 (4.09)
Y32N A33T Y108W,4.55 / ND / ND,1/9 (3.34)
G56E A61M V64I,1.35 / 1.39 / 1.22,1/9 (4.29)
A33V S52V G56A,ND / 5.79 / ND,3/9 (4.31)
H35E G59H V64L,6.17 / ND / ND,5/9 (4.14)
S55V S57N G104E,ND / 5.73 / 4.76,4/9 (4.24)
S55E G59A,ND / ND / ND,0/9
T28W G104Q D107L,4.61 / ND / ND,7/9 (5.11)
I58S S63A,3.76 / 4.58 / ND,6/9 (4.78)
F27D S57C G59K,ND / ND / ND,0/9
G50A G59Q G103Q,4.48 / 3.61 / 4.05,5/9 (4.79)
S55Q A61F G102V,4.61 / 6.04 / ND,1/9 (3.78)
W53H N54H G104S,ND / ND / ND,1/9 (2.32)
F29K D30A G104T,5.85 / 3.67 / 5.76,5/9 (4.65)
T28E S52G V99Q,1.65 / 1.69 / 1.29,5/9 (5.78)
N54Y G56A F106S,ND / 5.58 / ND,2/9 (3.87)
M34D S55M G103Y,ND / 5.88 / ND,3/9 (4.04)
D62R V64I G104D,ND / ND / ND,0/9
Y60Q V99R G100S,4.75 / 3.72 / 5.45,7/9 (4.55)
H35Q S52M S57Y,ND / ND / 3.48,1/9 (4.03)
G26C G50M D62H,6.01 / 3.68 / 3.98,2/9 (4.54)
G26Q W53P Y60I,2.03 / 2.71 / 1.81,0/9

A selection of 5 entries from above:

changes,"log10 Kd, replicates",control signals
M34D S55M G103Y,ND / 5.88 / ND,3/9 (4.04)
S52Q S63N F106V,3.46 / 3.89 / ND,1/9 (4.03)
G50A G59Q G103Q,4.48 / 3.61 / 4.05,5/9 (4.79)
S52D S55V Y105V,3.38 / 3.43 / 4.96,3/9 (4.28)
D31W A61Q G104V,ND / ND / ND,0/9

Values reported by Engelhart et al. 2022, doi:10.1038/s41597-022-01779-4 (FLAb copy).